In general, Ki refers to the dissociation constant of the complex between target and ligand, obtained from inhibition or displacement. Lower therefore signals a stronger hold on the target.

The record followed here is patent US20030162783A1 (priority 1999, published 2003).

This assay has as its target T1, NMDA receptor glycine site (Rattus norvegicus, UniProt P35439).
T1 construct: brain membranes bearing the receptor; tissue Analytical Biological Services Inc; host or cells: rat brain membranes (cerebral cortex and hippocampus, male Sprague Dawley rats)
As to the kind of experiment: Test A: Inhibition of binding of [3H]-MDL105,519 to brain membranes. The source says:
Test A: Inhibition of Binding of [^3H]-MDL105,519:
Binding of compounds to the NMDA receptor glycine site may be assessed by measuring the ability of test compounds to inhibit the binding of tritiated MDL105,519 to brain membranes bearing the receptor.
Briefly, fresh brain tissue including cerebral cortex and hippocampus from male Sprague Dawley rats was homogenized in 0.32 M sucrose and centrifuged at low speed to separate cellular membranes from other cellular components. The membranes were then washed 3 times using deionized water, followed by treatment with 0.04% Triton X-100. Finally, membranes were washed six times in 50 mM Tris citrate buffer, pH 7.4, and frozen at −80° C. until use.
[^3H]MDL105,519 (72 Ci/mmol) was purchased from Amersham. Cold MDL105,519 was purchased from Sigma/RBI. […] On the day of the experiment, brain membranes were thawed at room temperature and suspended in 50 mM tris acetate buffer, pH 7.4 (“TAB”). […] Non specific binding was determined by using 100 μM of unlabeled MDL105,519. […] The plates were dried overnight at room temperature and bound radioactivity was measured on a Packard TopCount after the addition of 45 μL per well of the MICROSCINT O. […]
Data was analyzed using a Microsoft Excel spreadsheet and GraphPad Prizm software and potency of compounds is expressed as the Ki (nM).

As for “7-Chloro-4hydroxy-2-(5-isoxazolino)methyl-1,2,5,10-tetrahydropyridazino[4,5-b]quinoline-1,10-dione [Ex. 7]”, the affinity corresponds to a Ki of 0.039 µM.
